Each structure is given as a SMILES string. Like-named read-outs stand apart in the source and are kept apart here.

Sequences of proteins named here, by UniProt entry; tags and fusion partners are left off.
UniProt P42336, whole entry H1047R: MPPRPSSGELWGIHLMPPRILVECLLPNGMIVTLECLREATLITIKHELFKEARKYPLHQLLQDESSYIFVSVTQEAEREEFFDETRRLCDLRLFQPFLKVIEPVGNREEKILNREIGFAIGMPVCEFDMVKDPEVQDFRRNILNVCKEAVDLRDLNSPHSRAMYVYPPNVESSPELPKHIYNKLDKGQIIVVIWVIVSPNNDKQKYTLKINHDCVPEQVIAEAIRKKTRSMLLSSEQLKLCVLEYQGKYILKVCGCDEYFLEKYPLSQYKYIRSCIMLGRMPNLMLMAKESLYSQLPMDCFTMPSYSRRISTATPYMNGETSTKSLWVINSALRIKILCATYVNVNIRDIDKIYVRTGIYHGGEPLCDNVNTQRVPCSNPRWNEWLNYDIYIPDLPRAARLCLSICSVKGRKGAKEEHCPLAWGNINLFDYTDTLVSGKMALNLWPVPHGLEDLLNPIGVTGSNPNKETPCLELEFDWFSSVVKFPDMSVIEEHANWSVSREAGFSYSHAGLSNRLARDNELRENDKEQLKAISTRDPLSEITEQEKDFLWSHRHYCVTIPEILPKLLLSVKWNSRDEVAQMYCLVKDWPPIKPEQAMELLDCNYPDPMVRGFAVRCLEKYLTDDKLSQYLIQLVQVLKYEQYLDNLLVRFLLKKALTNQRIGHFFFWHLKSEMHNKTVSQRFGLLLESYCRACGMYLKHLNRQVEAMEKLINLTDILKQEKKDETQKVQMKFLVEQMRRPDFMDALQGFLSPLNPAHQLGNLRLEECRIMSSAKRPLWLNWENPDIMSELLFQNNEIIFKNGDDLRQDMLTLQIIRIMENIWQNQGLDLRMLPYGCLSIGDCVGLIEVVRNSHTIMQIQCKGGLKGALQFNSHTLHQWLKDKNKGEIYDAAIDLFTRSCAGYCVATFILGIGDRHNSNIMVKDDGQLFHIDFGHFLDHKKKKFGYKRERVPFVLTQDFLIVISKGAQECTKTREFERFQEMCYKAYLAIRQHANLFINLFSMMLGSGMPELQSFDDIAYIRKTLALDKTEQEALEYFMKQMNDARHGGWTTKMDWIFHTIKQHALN
UniProt P27986, whole entry partner: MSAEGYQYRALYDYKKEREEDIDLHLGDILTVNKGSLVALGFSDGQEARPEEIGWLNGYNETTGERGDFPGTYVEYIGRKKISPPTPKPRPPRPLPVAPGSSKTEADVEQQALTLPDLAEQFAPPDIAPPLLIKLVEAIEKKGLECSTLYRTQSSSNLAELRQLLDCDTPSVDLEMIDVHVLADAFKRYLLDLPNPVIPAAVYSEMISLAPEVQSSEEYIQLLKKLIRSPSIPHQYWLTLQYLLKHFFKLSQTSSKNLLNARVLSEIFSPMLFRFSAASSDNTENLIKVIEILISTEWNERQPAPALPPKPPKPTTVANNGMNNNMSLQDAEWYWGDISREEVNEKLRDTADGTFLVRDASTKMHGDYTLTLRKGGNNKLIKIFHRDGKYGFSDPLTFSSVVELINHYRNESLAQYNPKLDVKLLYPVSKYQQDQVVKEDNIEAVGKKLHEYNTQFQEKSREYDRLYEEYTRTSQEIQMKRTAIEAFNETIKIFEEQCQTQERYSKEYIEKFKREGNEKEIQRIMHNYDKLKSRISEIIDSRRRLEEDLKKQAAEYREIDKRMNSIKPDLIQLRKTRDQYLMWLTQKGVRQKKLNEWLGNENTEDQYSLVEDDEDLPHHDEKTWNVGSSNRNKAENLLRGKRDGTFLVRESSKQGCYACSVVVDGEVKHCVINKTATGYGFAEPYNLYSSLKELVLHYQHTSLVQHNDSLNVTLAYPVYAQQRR

In experiment [1] the test system is PIK3CA-mediated AKT phosphorylation in MCF10A cells overexpressing hotspot PIK3CA mutations (including H1047R, E542K, and E545K mutations).
For experiment [2], the target named is H1047R PIK3CA enzyme (Homo sapiens, UniProt P42336, H1047R). As to the kind of experiment: ADP-Glo Biochemical PIK3CA Kinase Assay. The note with it: read-out: ADP-Glo IC50.
Setting [3] is: ADP-Glo biochemical PIK3CA kinase assay.

Turning to `Cc1ccccc1Nc1ncc(C(=O)N[C@H]2C[C@@H](C(=O)OC(C)(C)C)C2)cc1NC(=O)c1csc2ccccc12`, the results for the IC50 in experiment [1] and in experiment [2] (setting [3]) were 10000 to 36000 nM and 1000 to 10000 nM, respectively.

Regarding `CNC(=O)c1cnc(Nc2ccccc2C)c(NC(=O)c2cnc3ccccn23)c1`, the IC50 in experiment [2] (setting [3]) is 10000 to 100000 nM.

For `Cc1ccccc1Nc1ncc(C(=O)NCc2ccncn2)cc1NC(=O)c1cc(F)cc(C(F)(F)F)c1`, the IC50 in experiment [1] is 5000 to 10000 nM; in experiment [2] (setting [3]) it was 100 to 500 nM.

In the case of `Cc1ccccc1Nc1ncc(C(=O)N[C@H]2C[C@H](C(=O)OC(C)(C)C)C2)cc1NC(=O)c1csc2ccccc12`, the IC50 in experiment [1] is 36000 to 100000 nM; in experiment [2] (setting [3]), 500 to 1000 nM.

As for `CNC(=O)c1cnc(Nc2ccccc2)c(NC(=O)c2csc3ccccc23)c1`, the IC50 was in the range of 36000 to 100000 nM in experiment [1] and 100 to 500 nM in experiment [2] (setting [3]).

Turning to `Cc1ccccc1Nc1ncc(C(=O)N(C)C2CS(=O)(=O)C2)cc1NC(=O)c1csc2ccccc12`, the IC50 in experiment [1] fell in the range of 10000 to 36000 nM; in experiment [2] (setting [3]), 100 to 500 nM.

As for `CNC(=O)c1cnc(N2CCCCC2CCO)c(NC(=O)c2cc(F)cc(C(F)(F)F)c2)c1` (centres unmarked), the IC50 in experiment [2] lay in the range of 1000 to 10000 nM.

In the case of `Cc1ccccc1Nc1nc2nncn2cc1NC(=O)c1csc2ccccc12`, the IC50 in experiment [1] lay within 1000 to 5000 nM; in experiment [2], 500 to 1000 nM.

Take `CNC(=O)c1cnc(Nc2cccc3c2CCO3)c(NC(=O)c2cc(F)cc(C(F)(F)F)c2)c1`: in experiment [2] (setting [3]), the IC50 was 500 to 1000 nM.

In the case of `CNC(=O)c1cnc(Nc2ccccc2C)c(NC(=O)c2ccc(Cl)c(C(F)(F)F)c2)c1`, the IC50 in experiment [2] (setting [3]) is 1000 to 10000 nM.

Turning to `Cc1ccccc1Nc1ncc(C(=O)Nc2cnn(C)c2)cc1NC(=O)c1cc(F)cc(C(F)(F)F)c1`, the IC50 in experiment [1] is 1000 to 5000 nM; in experiment [2] (setting [3]), 100 to 500 nM.

As to `CNC(=O)c1cnc(Nc2ccccc2C)c(NC(=O)c2cccn(C(F)F)c2=O)c1`, the IC50 in experiment [2] (setting [3]) was 10000 to 100000 nM.

For the molecule `CNC(=O)c1cnc(Nc2cccc3c2OCC3)c(NC(=O)c2cc(F)cc(C(F)(F)F)c2)c1`, the IC50 in experiment [2] (setting [3]) fell in the range of 1000 to 10000 nM.

Consider `Cc1ccccc1Nc1ncc(NC2CC3(COC3)C2)cc1NC(=O)c1csc2ccccc12`, for which the IC50 in experiment [2] (setting [3]) was in the range of 1000 to 10000 nM.

`Cc1ccccc1Nc1ncc(N2CCC(N)C2)cc1NC(=O)c1cc(F)cc(C(F)(F)F)c1` (centres unmarked): the IC50 in experiment [2] (tested form: formate) is 1000 to 10000 nM.

Regarding `CNC(=O)c1cnc(Nc2cccc3c2OCC3)c(NC(=O)c2csc3ccccc23)c1`, in experiment [2] (setting [3]), the IC50 was in the range of 1000 to 10000 nM.

Take `CNC(=O)c1cnc(Nc2cccc(C)n2)c(NC(=O)c2csc3ccccc23)c1`: the IC50 in experiment [2] (setting [3]) fell in the range of 1000 to 10000 nM.

For `CNC(=O)c1cnc(Nc2ccccc2C)c(NC(=O)c2cc(F)c(OC)c(Cl)c2)c1`, in experiment [2] (setting [3]), the IC50 was in the range of 1000 to 10000 nM.

The molecule `Cc1ccccc1Nc1ncc(C(=O)NCc2cocn2)cc1NC(=O)c1cc(F)cc(C(F)(F)F)c1` showed an IC50 in experiment [1] of 1000 to 5000 nM.

As to `CNC(=O)c1cnc(Nc2ccccc2C)c(NC(=O)c2cc(OC)nc(C(F)(F)F)c2)c1`, the IC50 in experiment [2] (setting [3]) lay within 1000 to 10000 nM.

With `CNC(=O)c1cnc(Nc2ccccc2C)c(NC(=O)c2cc(F)c(F)c(OC)c2)c1`, the 50% inhibitory concentration (IC50) in experiment [1] was in the range of 1000 to 5000 nM.

Regarding `Cc1ccccc1Nc1ncc(C(=O)N[C@H]2C[C@@H](C(=O)N(C)C)C2)cc1NC(=O)c1csc2ccccc12` [I-694], the IC50 in experiment [2] (setting [3]) lay in the range of 1000 to 10000 nM.

For the molecule `CNC(=O)c1cnc(Nc2nccnc2C)c(NC(=O)c2csc3ccccc23)c1`, in experiment [2] (setting [3]), the IC50 was 1000 to 10000 nM.

Take `Cc1ccccc1Nc1ncc(C(=O)N[C@H]2C[C@@H](C(=O)O)C2)cc1NC(=O)c1csc2ccccc12`: the IC50 in experiment [1] lay within 10000 to 36000 nM; in experiment [2] (setting [3]), 500 to 1000 nM.

With `CNC(=O)c1cnc(Nc2ccccc2C)c(NC(=O)c2cc(F)c(C#N)c(F)c2)c1`, the IC50 in experiment [2] (setting [3]) is 1000 to 10000 nM.

With `Cc1ccccc1Nc1ncc(S(N)(=O)=O)cc1NC(=O)c1cc(F)cc(C(F)(F)F)c1`, in experiment [2] (setting [3]), the half-maximal inhibitory concentration (IC50) lay in the range of 1000 to 10000 nM.

Consider `Cc1ccccc1[C@H]1NC(=O)C[C@H]1C(=O)Nc1cc(F)cc(C(F)(F)F)c1` (relative stereo), for which the IC50 in experiment [2] (setting [3]) was in the range of 1000 to 10000 nM.

The molecule `Cc1ccccc1Nc1ncc(C(=O)NC2(C)CC2)cc1NC(=O)c1cc(F)cc(C(F)(F)F)c1` came in with an IC50 in experiment [1] of 5000 to 10000 nM.

With `Cc1ccccc1Nc1ncc(S(C)(=O)=O)cc1NC(=O)c1cc(F)cc(C(F)(F)F)c1`, the IC50 lay within 1000 to 5000 nM in experiment [1] and 100 to 500 nM in experiment [2] (setting [3]).

With `Cc1ccccc1Nc1ncc(C(=O)NCC2(O)CC2)cc1NC(=O)c1cc(F)cc(C(F)(F)F)c1`, in experiment [1], the IC50 is 1000 to 5000 nM.

As for `Cc1ccccc1Nc1ncc(-c2ncc[nH]2)cc1NC(=O)c1csc2ccccc12`, the IC50 is 5000 to 10000 nM in experiment [1] and 100 to 500 nM in experiment [2] (setting [3]).

In experiment [1], `CNC(=O)c1cnc(Nc2ccccc2C)c(NC(=O)c2cc(Cl)cc(C(F)(F)F)c2)c1` gave an IC50 of 5000 to 10000 nM.

Regarding `CNC(=O)c1cnc(Nc2ccccc2C)c(NC(=O)C2CCc3ccccc3C2)c1` (centres unmarked), the half-maximal inhibitory concentration (IC50) in experiment [2] lay within 10000 to 100000 nM.

With `Cc1ccccc1Nc1ncc(C(=O)NC2(C)CS(=O)(=O)C2)cc1NC(=O)c1cc(F)cc(C(F)(F)F)c1`, the IC50 in experiment [2] (setting [3]) lay in the range of 1000 to 10000 nM.

Turning to `CNC(=O)c1cnc(Nc2ccccc2C)c(NC(=O)c2cc(C(F)(F)F)ccc2F)c1`, the IC50 in experiment [1] lay in the range of 1000 to 5000 nM.

With `Cc1ccccc1Nc1nccnc1NC(=O)c1csc2ccccc12`, in experiment [2] (setting [3]), the IC50 is 1000 to 10000 nM.

`Cc1ccccc1Nc1ncc(C(=O)N[C@@H]2CC[C@H](C(=O)O)C2)cc1NC(=O)c1csc2ccccc12` (relative stereo): in experiment [2] (setting [3]), the IC50 fell in the range of 1000 to 10000 nM.

Take `CNC(=O)c1cnc(Nc2ccccc2C)c(NC(=O)c2cc(F)c(F)c(Cl)c2)c1`: the values for the IC50 in experiment [1] and in experiment [2] (setting [3]) were less than 1000 nM and 100 to 500 nM, respectively.

As to `COc1cc(-c2cnc(Nc3ccccc3C)c(NC(=O)c3cc(F)cc(C(F)(F)F)c3)c2)ccn1`, the results for the IC50 in experiment [1] and in experiment [2] were 1000 to 5000 nM and 500 to 1000 nM, respectively.

On to `CNC(=O)c1cnc(Nc2ccccc2C)c(NC(=O)c2ccc(Cl)c(F)c2)c1`, for which the IC50 in experiment [2] (setting [3]) lay in the range of 1000 to 10000 nM.

As to `CNC(=O)c1cnc(Nc2ncccc2Cl)c(NC(=O)c2csc3ccccc23)c1`, the IC50 in experiment [2] (setting [3]) lay within 1000 to 10000 nM.

For the molecule `CNC(=O)c1cnc(Nc2ccc(C)cn2)c(NC(=O)c2csc3ccccc23)c1`, the IC50 in experiment [2] (setting [3]) fell in the range of 1000 to 10000 nM.

Consider `COC(=O)c1cnc(Nc2ccccc2C)c(NC(=O)c2cccc(C3(C(F)(F)F)N=N3)c2)c1`, for which the IC50 in experiment [2] fell in the range of 1000 to 10000 nM.

On to `Cc1ccccc1Nc1ncc(C(=O)NC2COC2)cc1NC(=O)c1cc(F)cc(C(F)(F)F)c1`, for which the IC50 was in the range of 1000 to 5000 nM in experiment [1] and 100 to 500 nM in experiment [2] (setting [3]).

`Cc1ccccc1Nc1ncc(C(=O)NCC(F)F)cc1NC(=O)c1cc(F)cc(C(F)(F)F)c1`: the IC50 in experiment [1] was 10000 to 36000 nM; in experiment [2] (setting [3]), 100 to 500 nM.

Regarding `CCCCC(CC)COC(=O)CCSc1cnc(Nc2ccccc2C)c(NC(=O)c2cc(F)cc(C(F)(F)F)c2)c1` (centres unmarked), in experiment [2] (setting [3]), the IC50 was in the range of 1000 to 10000 nM.

Regarding `Cc1ccccc1Nc1ncc(C(=O)NCC2CS(=O)(=O)C2)cc1NC(=O)c1cc(F)cc(C(F)(F)F)c1`, in experiment [2] (setting [3]), the IC50 lay within 1000 to 10000 nM.

As to `CNC(=O)c1cnc(Nc2cccc3c2CCO3)c(NC(=O)c2csc3ccccc23)c1`, in experiment [2] (setting [3]), the IC50 fell in the range of 500 to 1000 nM.

The IC50 is the point on the concentration scale where inhibition reaches its midpoint.

For the origin of these results see patent US20250090540A1, “PI3K-ALPHA INHIBITORS AND METHODS OF USE THEREOF” (Relay Therapeutics, Inc., priority 2021, published 2025).
